Laboratory results as given in patent EP0422215B1, “ANTIBACTERIAL AND AN[…]” (THE ROCKEFELLER UNIVERSITY, priority 1989, dated 1990).

Tested on: Sheep Red Cells
Assay: lysis of sheep red blood cells (lysis assay or inhibition zone plate assay with SRC)
Format: cell-based
Conditions: stated in running text
Procedure: These values were obtained by either the lysis assay normally used for melittin or by an adaptation of the antibacterial inhibition zone assay of the above-cited Hultmark et al. articles to plates with sheep red cells (SRC). With respect to the latter, sterile agarose plates contained 6 ml of medium with 1% agarose, 0.9% NaCl and 10% SRC suspended in Alsevers solution. A dilution series of peptide was applied in 3mm wells each loaded with 3 µl of the respective samples. The plates were incubated at 30°C for 24 h, the zones were recorded and LC values calculated as described in the Hultmark et al. articles. Clear zones were recorded after a few hours of incubation and the use of such data gave an LC value of the same order as readings after 24 h. This plate assay is faster and more convenient than the lysis assay normally used for melittin.

CC[C@H](C)[C@H](NC(=O)CN)C(=O)NCC(=O)N[C@@H](C)C(=O)N[C@H](C(=O)N[C@@H](CC(C)C)C(=O)N[C@@H](CCCCN)C(=O)N[C@H](C(=O)N[C@@H](CC(C)C)C(=O)N[C@H](C(=O)N[C@H](C(=O)NCC(=O)N[C@@H](CC(C)C)C(=O)N1CCC[C@H]1C(=O)N[C@@H](C)C(=O)N[C@@H](CC(C)C)C(=O)N[C@H](C(=O)N[C@@H](CO)C(=O)N[C@@H](Cc1c[nH]c2ccccc12)C(=O)N[C@H](C(=O)N[C@@H](CCCCN)C(=O)N[C@@H](CCCNC(=N)N)C(=O)N[C@@H](CCCCN)C(=O)N[C@@H](CCCNC(=N)N)C(=O)N[C@@H](CCC(N)=O)C(=O)N[C@@H](CCC(N)=O)C(N)=O)[C@@H](C)CC)[C@@H](C)CC)[C@@H](C)O)[C@@H](C)O)C(C)C)C(C)C [M(1-26), reference compound]
concentration lytic to sheep red blood cells: 4 to 6 µM
